In patent publication US20180086789A1, “PHARMACEUTICAL COMPOUND” (VALLAURIX PTE. LTD., priority 2015, published 2018):

Tested on: tyrosinase
Test: Effects on tyrosinase activity in human melanocyte culture 1750 (3H-labeled tyrosine)
Assay type: cell-based
Details: 10^−9 M, six days of treatment, human melanocyte culture 1750 expressing functional MC1R
Procedure: The compound with formula structure Ac-Nle-Glu-His-D-Phe-homoArg-Trp-NH2 of the invention was tested using human melanocyte culture coded 1750 that expressed functional MC1R. The melanocytes were plated at a density of 0.3*10^6 cells onto 60 mm dishes (triplicate dishes/group). After 48 hours, the melanocytes were treated every other day for a total of six days with different doses (10^−12 M to 10^−7 M) of the compound. A control without compound was included in the test. Reference compound NDP-MSH, afamelanotide, was also included as comparison at the same concentrations. On treatment day 5, ^3H-labeled tyrosine, the substrate for tyrosinase, was added and 24 hours later, the supernatant was saved to be assayed for tyrosinase activity as described by Suzuki et al (see example 2). Duplicate samples from each were assayed, with triplicate dishes included in each group. Cell number in each dish was counted, and tyrosinase activity was expressed as dpm/10^6 cells and as % of the control. Statistical analysis was carried out using ANOVA followed by Newman Kuels test.
It will be understood that this tyrosinase activation test relates to a late event after MC1R activation, compared to the earlier secondary messenger effect of the above cAMP test. As pointed out above, activity of tyrosinase requires days of treatment.

CCCC[C@H](NC(=O)[C@H](CO)NC(=O)[C@H](Cc1ccc(O)cc1)NC(=O)[C@H](CO)NC(C)=O)C(=O)N[C@@H](CCC(=O)O)C(=O)N[C@@H](Cc1cnc[nH]1)C(=O)N[C@H](Cc1ccccc1)C(=O)N[C@@H](CCCNC(=N)N)C(=O)N[C@@H](Cc1c[nH]c2ccccc12)C(=O)NCC(=O)N[C@@H](CCCCN)C(=O)N1CCC[C@H]1C(=O)N[C@H](C(N)=O)C(C)C [NDP-MSH, reference compound]
tyrosinase activity, efficacy, % of the control: 156%
